Consider two substances from patent publication US8937089B2, “Synergistic mixtures of anthranilamide invertebrate pest control agents” (priority 2004, dated 2015).

What all share (details): in vivo
The test system of data set [1] is silverleaf whitefly (Bemisia argentifolii Bellows and Perring). From the text:
For evaluating control of silverleaf whitefly (Bemisia argentifolii Bellows and Perring) through contact and/or systemic means, each test unit consisted of a small open container with a 12- to 14-day-old cotton plant inside. This was pre-infested by placing test units into cages infested with adult whiteflies so that oviposition on the cotton leaves could occur. The adults were removed from the plants with an air-blast nozzle, and the test units were capped. The test units were then stored 2 to 3 days before spraying.
(§1) Test compounds were formulated using a solution containing 10% acetone, 90% water and 300 ppm X-77® Spreader Lo-Foam Formula non-ionic surfactant containing alkylarylpolyoxyethylene, free fatty acids, glycols and 2-propanol (Loveland Industries, Inc.) to provide the desired concentration in ppm. Formulated test solutions were then applied in 1 mL volumes through a SUJ2 atomizer nozzle with 1/8 JJ custom body (Spraying Systems Co.) positioned 1.27 cm (0.5 inches) above the top of each test unit.
The results for all experimental compositions in this test were replicated three times. After spraying of the formulated test composition, each test unit was allowed to dry for 1 hour and the cap removed. The test units were held for 13 days in a growth chamber at 28° C. and 50-70% relative humidity.

Data set [2] deals with western flower thrip (Frankliniella occidentalis Pergande). As for the experimental part: as §1
For evaluating control of the western flower thrip (Frankliniella occidentalis Pergande) through contact and/or systemic means, each test unit consisted of a small open container with a 5- to 7-day-old bean (var. Soleil) plant inside.
Test solutions were formulated and sprayed with 3 replications as described for Test A. After spraying, the test units were allowed to dry for 1 hour, 22 to 27 adult thrips were added to each unit and then a black, screened cap was placed on top. The test units were held for 7 days at 25° C. and 45-55% relative humidity.

Data set [3] relates to corn planthopper (Peregrines maidis). The method, then:
as §1
For evaluating control of corn planthopper (Peregrines maidis) through contact and/or systemic means, each test unit consisted of a small open cylindrical container with a 3- to 4-day-old corn (maize) plant (spike) inside. White sand was added to the top of the soil prior to application. Test compounds were formulated and sprayed with 3 replications as described for Test A. After spraying, the test units were allowed to dry for 1 hour before they were post-infested with 10 to 20 corn planthoppers (18- to 20-day-old nymphs) by sprinkling them onto the sand with a salt shaker. A black, screened cap was placed on the top of each container. The test units were held for 6 days in a growth chamber at 19-21° C. and 50-70% relative humidity.

As for Dinotefuran, in data set [1], the “% mortality (obs)” value was found to be 74%.

In the case of Triazamate, the “% mortality (obs)” value in data set [2] was determined as 90%; in data set [3] it was 94%.
